Assay results reported in ChEMBL document CHEMBL5096191, “Design of Negative and Positive Allosteric Modulators of the Cannabinoid CB2 Receptor Derived from the Natural Product Cannabidiol” (J Med Chem, 2021).

The chains behind the UniProt entries cited, without tags or fusion partners.
UniProt P34972, whole entry: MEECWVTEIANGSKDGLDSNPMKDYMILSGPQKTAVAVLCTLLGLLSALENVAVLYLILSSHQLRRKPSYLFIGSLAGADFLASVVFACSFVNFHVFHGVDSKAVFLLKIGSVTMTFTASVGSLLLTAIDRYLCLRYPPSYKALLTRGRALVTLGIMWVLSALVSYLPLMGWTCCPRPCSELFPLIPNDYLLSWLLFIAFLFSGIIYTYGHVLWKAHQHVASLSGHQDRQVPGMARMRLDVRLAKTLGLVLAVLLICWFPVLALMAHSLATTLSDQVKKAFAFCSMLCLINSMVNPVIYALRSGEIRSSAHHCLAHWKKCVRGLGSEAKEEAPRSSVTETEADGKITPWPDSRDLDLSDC
UniProt P34972, whole entry V113M: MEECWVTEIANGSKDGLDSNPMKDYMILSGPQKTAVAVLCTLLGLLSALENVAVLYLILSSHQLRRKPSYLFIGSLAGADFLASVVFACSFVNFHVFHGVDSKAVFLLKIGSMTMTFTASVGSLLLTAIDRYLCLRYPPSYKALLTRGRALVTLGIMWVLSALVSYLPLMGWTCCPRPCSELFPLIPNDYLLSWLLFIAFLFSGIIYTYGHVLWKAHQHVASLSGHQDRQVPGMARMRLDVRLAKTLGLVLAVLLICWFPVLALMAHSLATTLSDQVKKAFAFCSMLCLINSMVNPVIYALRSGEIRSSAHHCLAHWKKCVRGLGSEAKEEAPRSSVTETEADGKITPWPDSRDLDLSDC
UniProt P34972, whole entry V36M: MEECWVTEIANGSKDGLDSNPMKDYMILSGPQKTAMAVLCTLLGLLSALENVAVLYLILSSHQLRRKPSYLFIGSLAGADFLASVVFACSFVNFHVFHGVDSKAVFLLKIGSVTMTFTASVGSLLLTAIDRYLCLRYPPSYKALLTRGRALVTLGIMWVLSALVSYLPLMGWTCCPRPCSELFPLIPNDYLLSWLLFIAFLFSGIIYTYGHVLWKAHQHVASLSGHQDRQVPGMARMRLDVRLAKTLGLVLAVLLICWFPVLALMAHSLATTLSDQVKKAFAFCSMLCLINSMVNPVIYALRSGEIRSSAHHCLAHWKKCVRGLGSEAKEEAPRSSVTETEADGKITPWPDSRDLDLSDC
UniProt P34972, whole entry A282M: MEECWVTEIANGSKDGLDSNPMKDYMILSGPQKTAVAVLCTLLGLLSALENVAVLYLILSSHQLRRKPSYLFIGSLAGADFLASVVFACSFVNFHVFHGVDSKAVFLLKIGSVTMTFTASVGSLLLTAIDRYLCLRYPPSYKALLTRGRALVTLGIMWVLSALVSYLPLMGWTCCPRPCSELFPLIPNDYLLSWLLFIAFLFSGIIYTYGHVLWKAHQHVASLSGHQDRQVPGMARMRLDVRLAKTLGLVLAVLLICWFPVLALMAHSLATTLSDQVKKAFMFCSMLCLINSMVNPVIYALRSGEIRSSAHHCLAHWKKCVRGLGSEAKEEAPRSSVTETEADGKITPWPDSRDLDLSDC
UniProt P34972, whole entry S285L: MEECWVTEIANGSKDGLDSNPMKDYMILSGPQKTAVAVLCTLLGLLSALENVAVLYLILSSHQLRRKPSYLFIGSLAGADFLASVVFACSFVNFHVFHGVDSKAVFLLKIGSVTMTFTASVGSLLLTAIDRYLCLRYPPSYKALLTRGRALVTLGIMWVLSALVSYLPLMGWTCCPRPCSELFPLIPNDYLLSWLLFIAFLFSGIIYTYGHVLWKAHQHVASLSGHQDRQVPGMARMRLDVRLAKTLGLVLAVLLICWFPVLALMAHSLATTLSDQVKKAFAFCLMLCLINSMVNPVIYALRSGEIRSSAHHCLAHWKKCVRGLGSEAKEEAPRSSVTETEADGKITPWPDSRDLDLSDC

Key:
Assay type in all cases: functional, cell-based
Cannabinoid receptor 2 [1] = biological target: T1, Cannabinoid receptor 2 (Homo sapiens, UniProt P34972); assay: Partial agonist activity at wild type CB2 receptor (unknown origin) stably expressed in HEK293T assessed as decrease in forskolin induced cAMP level preincubated for 15 mins followed by forskolin addition incubated for 15 mins by HTRF assay
Cannabinoid receptor 2 [2] = biological target: T1, Cannabinoid receptor 2; assay: Partial agonist activity at wild type CB2 receptor (unknown origin) stably expressed in HEK293T assessed as decrease in forskolin induced cAMP level preincubated for 15 mins followed by forskolin addition incubated for 15 mins in presence of JWH-133 by HTRF assay
Cannabinoid receptor 2 [3] = biological target: T2, Cannabinoid receptor 2 (Homo sapiens, UniProt P34972, V113M); assay: Partial agonist activity at CBR2 V1133.32M mutant (unknown origin) stably expressed in HEK293T assessed as decrease in forskolin induced cAMP level preincubated for 15 mins followed by forskolin addition incubated for 15 mins by HTRF assay
Cannabinoid receptor 2 [4] = biological target: T2, Cannabinoid receptor 2; assay: Partial agonist activity at CBR2 V1133.32M mutant (unknown origin) stably expressed in HEK293T assessed as decrease in forskolin induced cAMP level preincubated for 15 mins followed by forskolin addition incubated for 15 mins in presence of JWH-133 by HTRF assay
Cannabinoid receptor 2 [5] = biological target: T3, Cannabinoid receptor 2 (Homo sapiens, UniProt P34972, V36M); assay: Partial agonist activity at CBR2 V361.35M mutant (unknown origin) stably expressed in HEK293T assessed as decrease in forskolin induced cAMP level preincubated for 15 mins followed by forskolin addition incubated for 15 mins in presence of JWH-133 by HTRF assay
Cannabinoid receptor 2 [6] = biological target: T4, Cannabinoid receptor 2 (Homo sapiens, UniProt P34972, A282M); assay: Partial agonist activity at CBR2 A2827.36M mutant (unknown origin) stably expressed in HEK293T assessed as decrease in forskolin induced cAMP level preincubated for 15 mins followed by forskolin addition incubated for 15 mins in presence of JWH-133 by HTRF assay
Cannabinoid receptor 2 [7] = biological target: T5, Cannabinoid receptor 2 (Homo sapiens, UniProt P34972, S285L); assay: Partial agonist activity at CBR2 S2857.39L mutant (unknown origin) stably expressed in HEK293T assessed as decrease in forskolin induced cAMP level preincubated for 15 mins followed by forskolin addition incubated for 15 mins in presence of JWH-133 by HTRF assay
Cannabinoid receptor 2 [8] = biological target: T1, Cannabinoid receptor 2; assay: Partial agonist activity at wild type CB2 receptor (unknown origin) expressed in HEK293T assessed as increase in ERK1/2 phosphorylation incubated for 7 mins by AlphaScreenSureFire method
Cannabinoid receptor 2 [9] = biological target: T1, Cannabinoid receptor 2; assay: Partial agonist activity at wild type CB2 receptor (unknown origin) expressed in HEK293T assessed as increase in ERK1/2 phosphorylation incubated for 7 mins in presence of JWH-133 by AlphaScreenSureFire method
Cannabinoid receptor 2 [10] = biological target: T2, Cannabinoid receptor 2; assay: Partial agonist activity at CBR2 V1133.32M mutant (unknown origin) expressed in HEK293T assessed as increase in ERK1/2 phosphorylation incubated for 7 mins by AlphaScreenSureFire method
Cannabinoid receptor 2 [11] = biological target: T2, Cannabinoid receptor 2; assay: Partial agonist activity at CBR2 V1133.32M mutant (unknown origin) expressed in HEK293T assessed as increase in ERK1/2 phosphorylation incubated for 7 mins in presence of JWH-133 by AlphaScreenSureFire method
Cannabinoid receptor 2 [12] = biological target: T3, Cannabinoid receptor 2; assay: Partial agonist activity at CBR2 V361.35M mutant (unknown origin) expressed in HEK293T assessed as increase in ERK1/2 phosphorylation incubated for 7 mins in presence of JWH-133 by AlphaScreenSureFire method
Cannabinoid receptor 2 [13] = biological target: T4, Cannabinoid receptor 2; assay: Partial agonist activity at CBR2 A2827.36M mutant (unknown origin) expressed in HEK293T assessed as increase in ERK1/2 phosphorylation incubated for 7 mins in presence of JWH-133 by AlphaScreenSureFire method
Cannabinoid receptor 2 [14] = biological target: T5, Cannabinoid receptor 2; assay: Partial agonist activity at CBR2 S2857.39L mutant (unknown origin) expressed in HEK293T assessed as increase in ERK1/2 phosphorylation incubated for 7 mins in presence of JWH-133 by AlphaScreenSureFire method
Cannabinoid receptor 2 [15] = biological target: T1, Cannabinoid receptor 2; assay: Partial agonist activity at wild type CB2 receptor (unknown origin) expressed in HEK293T assessed as increase in picometer shifts of reflected light wavelengths by DMR assay
Cannabinoid receptor 2 [16] = biological target: T1, Cannabinoid receptor 2; assay: Partial agonist activity at wild type CB2 receptor (unknown origin) expressed in HEK293T assessed as increase in picometer shifts of reflected light wavelengths in presence of JWH-133 by DMR assay
Cannabinoid receptor 2 [17] = biological target: T1, Cannabinoid receptor 2; assay: Positive allosteric modulation of JWH-133-induced agonist activity at wild type CB2 receptor (unknown origin) stably expressed in HEK293T cells assessed as inhibition of forskolin-stimulated cAMP levels preincubated for 15 mins followed by forskolin addition incubated for 15 mins by HTRF assay
Cannabinoid receptor 2 [18] = biological target: T2, Cannabinoid receptor 2; assay: Partial agonist activity at CBR2 V1133.32M mutant (unknown origin) expressed in HEK293T assessed as increase in picometer shifts of reflected light wavelengths by DMR assay
Cannabinoid receptor 2 [19] = biological target: T2, Cannabinoid receptor 2; assay: Partial agonist activity at CBR2 V1133.32M mutant (unknown origin) expressed in HEK293T assessed as increase in picometer shifts of reflected light wavelengths in presence of JWH-133 by DMR assay
Cannabinoid receptor 2 [20] = biological target: T3, Cannabinoid receptor 2; assay: Partial agonist activity at CBR2 V361.35M mutant (unknown origin) expressed in HEK293T assessed as increase in picometer shifts of reflected light wavelengths in presence of JWH-133 by DMR assay

## C=C(C)[C@@H]1CCC(C)=C[C@H]1c1c(O)cc(CCCCC)cc1O [CANNABIDIOL]
Cannabinoid receptor 2 [1]
  EC50: 50.1 nM
Cannabinoid receptor 2 [2]
  EC50: 50.1 nM
Cannabinoid receptor 2 [3]
  EC50: 39.8 nM
Cannabinoid receptor 2 [4]
  EC50: 25.1 nM
Cannabinoid receptor 2 [5]
  EC50: 15.8 nM
Cannabinoid receptor 2 [6]
  EC50: 7.94 nM
Cannabinoid receptor 2 [7]
  EC50: 39.8 nM
Cannabinoid receptor 2 [8]
  EC50: 12.6 nM
Cannabinoid receptor 2 [9]
  EC50: 7.94 nM
Cannabinoid receptor 2 [10]
  EC50: 12.6 nM
Cannabinoid receptor 2 [11]
  EC50: 39.8 nM
Cannabinoid receptor 2 [12]
  EC50: 39.8 nM
Cannabinoid receptor 2 [13]
  EC50: 12.6 nM
Cannabinoid receptor 2 [14]
  EC50: 31.6 nM
Cannabinoid receptor 2 [15]
  EC50: 501 nM
Cannabinoid receptor 2 [16]
  EC50: 631 nM
Cannabinoid receptor 2 [17]
  EC50: 251 nM
Cannabinoid receptor 2 [18]
  EC50: 631 nM
Cannabinoid receptor 2 [19]
  EC50: 398 nM
Cannabinoid receptor 2 [20]
  EC50: 631 nM
